According to US11129831B2 (dated 2021):

What was measured:
[1] = tested on: apomorphine (APO)-induced climbing behavior; conditions: result in words
catalepsy = experiment: Catalepsy bar test; conditions: for catalepsy AED50 (adverse effect dose), bar test: rats, ip

Row | Compound | antipsychotic activity in animal models of schizophrenia (FIG. 10A) [1] | catalepsy at 6×ED50 (FIG. 10B) (catalepsy; 6×ED50 values, result in words) | catalepsy AED50 (adverse effect dose), bar test (catalepsy) [mg/kg]
1 | Fc1ccc(CCCCN2CCN(c3ccccn3)CC2)cc1 [SYA16263] | dose-dependent antipsychotic activity | no catalepsy | > 75
2 | Fc1ccc(OCCCN2CCN(c3ccccn3)CC2)cc1 [SYA16264] |  |  | > 83.5
